The results in this text go back to patent US6596315B1, “Method of producing drug particles” (AstraZeneca AB, priority 1998, dated 2003).

The nature of the series: HPLC determination of degradation products in particles after SEDS processing. Type of series: physicochemical. The conditions noted are these: formoterol fumarate particles after SEDS processing; for degradation products (HPLC): ethane or carbon dioxide as antisolvent; for Degradation product a: antisolvent CO2 or ethane, 80-100 bar, 40-45 °C, HPLC. The protocol:
High-Perfomance Liquid Chromatography (HPLC)
Identification and quantification of degradation products were determined using HPLC technique.
The amount of degradation products was calculated from the chromatograms as area-%. Thus, 0.2% area-procent means that the amount of degradation products was 0.2% of the initial weight of the substance.
Particles were prepared in a modified SEDS equipment (Bradford Particle Design Limited, UK) from a solution, containing substance(s).
The solution and the antisolvent were introduced into a coaxial nozzle, which was located inside a pressure vessel. Under controlled pressure and temperature conditions, the antisolvent extracts the solvent from the solution droplets. The concentration of the solute in the droplets is thereby increased, leading to rapid particle formation. The particles were collected in a vessel, while the antisolvent and the extracted solvent emerged through a back pressure regulator.
The nozzle used was a two component nozzle, with an opening of 0.2 mm in diameter. In the two component nozzle the supercritical fluid passes through the inner passage, while the solution passes through the outer passage.

As to formoterol fumarate [Experiment 3-1a], the “degradation products (HPLC)” value is on record as 0.26 weight % and the Degradation product a is recorded as 0.26 w %.

Turning to formoterol fumarate [Experiment 3-1b], the “degradation products (HPLC)” value was 0.07 weight % and the Degradation product a stood at 0.07 w %.

As to formoterol fumarate [Experiment 3-2a], the “degradation products (HPLC)” value is recorded as 0.22 weight % and the Degradation product a was determined as 0.22 w %.

For formoterol fumarate [Experiment 3-2b], the “degradation products (HPLC)” value is 0.11 weight % and the Degradation product a was determined as 0.11 w %.
